Data published in US10253019B2, “Tank-binding kinase inhibitor compounds” (Gilead Sciences, Inc., priority 2014, dated 2019).

Chains of the proteins cited; added tags and fusions are not shown. Lines headed by an entry give the natural chain unless they say otherwise; changes in a name come on top.
UniProt Q9UHD2: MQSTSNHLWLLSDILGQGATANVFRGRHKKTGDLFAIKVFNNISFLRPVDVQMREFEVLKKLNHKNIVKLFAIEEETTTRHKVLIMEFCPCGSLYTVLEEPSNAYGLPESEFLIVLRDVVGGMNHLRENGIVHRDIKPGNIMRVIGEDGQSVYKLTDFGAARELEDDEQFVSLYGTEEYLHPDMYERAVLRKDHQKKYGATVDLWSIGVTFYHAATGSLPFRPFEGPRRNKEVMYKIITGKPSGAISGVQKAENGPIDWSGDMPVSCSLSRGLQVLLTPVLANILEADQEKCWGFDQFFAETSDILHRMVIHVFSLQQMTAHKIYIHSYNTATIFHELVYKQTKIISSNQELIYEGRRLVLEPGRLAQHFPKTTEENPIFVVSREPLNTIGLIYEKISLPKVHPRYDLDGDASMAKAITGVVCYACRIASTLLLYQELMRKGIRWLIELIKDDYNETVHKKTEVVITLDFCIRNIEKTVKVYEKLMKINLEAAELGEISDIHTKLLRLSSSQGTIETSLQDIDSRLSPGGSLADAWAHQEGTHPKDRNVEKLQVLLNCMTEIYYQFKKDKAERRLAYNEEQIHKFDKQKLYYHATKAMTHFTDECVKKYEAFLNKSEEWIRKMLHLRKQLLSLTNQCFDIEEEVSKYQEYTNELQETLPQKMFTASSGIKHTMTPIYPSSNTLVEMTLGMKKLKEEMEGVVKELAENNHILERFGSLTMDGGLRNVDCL

Target: TBK1 (Homo sapiens (Human), UniProt Q9UHD2)
Test: TBK1 TR-FRET enzymatic assay
Settings: read-out: TBK1 IC50

## 2-(((3R,4S)-4-fluoro-1-(2-hydroxyacetyl)pyrrolidin-3-yl)oxy)-5-(4-((4-(4-(oxetan-3-yl)piperazin-1-yl)phenyl)amino)-1,3,5-triazin-2-yl)benzonitrile [Example 101]
  IC50: 14 nM
